# Apparent affinities of Ab-91 variants for a coronavirus HR2 peptide

Binding partner: SARS-CoV-2 spike HR2 peptide, sequence PDVDLGDISGINAS.

Each scFv is VL, a (GGGGS)3 linker, VH, as in the parent Ab-91, and differs from it in the CDRs of the heavy chain only.
VL: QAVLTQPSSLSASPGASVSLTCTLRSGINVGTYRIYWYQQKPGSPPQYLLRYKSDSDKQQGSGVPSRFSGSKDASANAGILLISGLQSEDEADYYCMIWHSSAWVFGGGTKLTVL
VH: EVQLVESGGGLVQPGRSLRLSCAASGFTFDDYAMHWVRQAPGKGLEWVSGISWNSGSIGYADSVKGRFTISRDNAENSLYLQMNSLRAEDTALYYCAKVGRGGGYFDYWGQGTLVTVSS

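The starting antibody came from a phage panning campaign against this peptide. In library AAYL51, one, two or three CDR residues were substituted; doubles and triples were drawn at random. The assay is AlphaSeq: two haploid yeast populations carry antibody and antigen on their surface. Mating (16 h, 30 °C) was followed by selection of diploids and sequencing of their barcodes. Each replicate has its own calibration line, from reference interactions of the BCL2 family. Mating was done three times.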

Positions count from residue 1 of the parent VH; G56K puts K in place of G.
Each Kd is an estimate from the mating assay, the geometric mean of the replicates in which the pair was seen; lower is stronger.
"no signal" marks a missing value. The strain was present, yet no cells mated with the target were sequenced in any replicate, which points to weak or no binding.
In this assay the parent's reference entry averaged 72 nM; its copy inside this library read 7.5 nM.

| # | apparent Kd | seen in | changes |
|---|---|---|---|
| 1 | no signal | 0/3 | G56K+G59E+G103M |
| 2 | 38 µM | 1/3 | H35R+S52K+K65S |
| 3 | 17 µM | 2/3 | D31V+Y32C+S63M |
| 4 | 6.3 µM | 1/3 | F27M+D62N+K65M |
| 5 | 3.7 µM | 2/3 | D30I+G56M+G59Y |
| 6 | no signal | 0/3 | D30A+G50W+N54E |
| 7 | 110 nM | 3/3 | T28D+G56C+K65W |
| 8 | 110 µM | 2/3 | Y32Q+G50K+R101G |
| 9 | 17 µM | 1/3 | F27T+G50F+N54Q |
| 10 | 42 µM | 3/3 | W53T+G56H+A61R |
| 11 | 24 µM | 1/3 | D31C+I58E+G59Y |
| 12 | no signal | 0/3 | V64W+G102Q+G103M |
| 13 | no signal | 0/3 | A33C+V99W+G100H |
| 14 | no signal | 0/3 | Y32R+D62H+K65M |
| 15 | 140 µM | 1/3 | F27C+H35L+Y105I |
| 16 | 590 µM | 3/3 | A33R+S52E |
| 17 | 13 µM | 2/3 | T28Q+W53I+S57L |
| 18 | 18 µM | 1/3 | N54V+G104Q |
| 19 | no signal | 0/3 | V99M+D107I |
| 20 | 250 µM | 3/3 | S55H+Y60S+D107N |
| 21 | no signal | 0/3 | I51R+G100W+F106W |
| 22 | 37 µM | 3/3 | G26I+G56Q+Y60L |
| 23 | 60 µM | 3/3 | Y60G+S63Q+G103Q |
| 24 | 61 µM | 1/3 | Y32K+Y108T |
| 25 | 25 µM | 3/3 | N54G+Y60P+G100M |
| 26 | 98 µM | 3/3 | G50I+I51A+Y108G |
| 27 | 3.4 µM | 1/3 | I51G+S57R+G104P |
| 28 | 21 µM | 1/3 | W53M+V99W+D107K |
| 29 | no signal | 0/3 | Y60L+K65P+V99Y |
| 30 | no signal | 0/3 | A33P+W53L+Y60M |
| 31 | no signal | 0/3 | W53D+I58D+V99I |
| 32 | no signal | 0/3 | Y32N+G100I+G102L |
| 33 | 290 µM | 1/3 | I58C+V64D+K65G |
| 34 | no signal | 0/3 | F27W+Y32P+M34V |
| 35 | 26 µM | 3/3 | S55A+S57K+F106D |
| 36 | no signal | 0/3 | G26R+W53R |
| 37 | 10 µM | 1/3 | T28W+K65V+F106Q |
| 38 | 190 µM | 3/3 | I51H+W53H+D107I |
| 39 | no signal | 0/3 | F29C+G59N+D107P |
| 40 | 670 µM | 3/3 | G50N+S57D+A61L |
| 41 | 31 nM | 3/3 | G56A+D62S+Y108H |
| 42 | no signal | 0/3 | D30R+G56M+Y60A |
| 43 | no signal | 0/3 | S55T+I58S+V64M |
| 44 | 230 µM | 2/3 | M34V+I51C+D107H |
| 45 | no signal | 0/3 | G26D+G100L+Y108S |
| 46 | 220 µM | 3/3 | G26D+G104E |
| 47 | 4.3 µM | 3/3 | D31A+Y32H+Y108P |
| 48 | no signal | 0/3 | M34W+I51T+S57A |
| 49 | 3.0 µM | 1/3 | D31Q+H35F+W53E |
| 50 | no signal | 0/3 | N54W+S63M+G100R |

The 8 strongest on average among those seen in every replicate, once more:

changes,apparent Kd,seen in
G56A+D62S+Y108H,31 nM,3/3
T28D+G56C+K65W,110 nM,3/3
D31A+Y32H+Y108P,4.3 µM,3/3
N54G+Y60P+G100M,25 µM,3/3
S55A+S57K+F106D,26 µM,3/3
G26I+G56Q+Y60L,37 µM,3/3
W53T+G56H+A61R,42 µM,3/3
Y60G+S63Q+G103Q,60 µM,3/3

As a blank, each scFv also met three strains without target: over library AAYL51, 21% of these pairings were detected, typically at 34 µM and seldom below 1.8 µM.

The measurements come from Engelhart et al. 2022 (doi:10.1038/s41597-022-01779-4) through the FLAb antibody collection.